Reference: article PMC5807507, “Crystal structures of a bacterial dipeptidyl peptidase IV reveal a novel substrate recognition mechanism distinct from that of mammalian orthologues” (Scientific Reports, 2018)

The chains behind the UniProt entries cited, without tags or fusion partners. Residues count along the entry.
UniProt P27487, 39-766: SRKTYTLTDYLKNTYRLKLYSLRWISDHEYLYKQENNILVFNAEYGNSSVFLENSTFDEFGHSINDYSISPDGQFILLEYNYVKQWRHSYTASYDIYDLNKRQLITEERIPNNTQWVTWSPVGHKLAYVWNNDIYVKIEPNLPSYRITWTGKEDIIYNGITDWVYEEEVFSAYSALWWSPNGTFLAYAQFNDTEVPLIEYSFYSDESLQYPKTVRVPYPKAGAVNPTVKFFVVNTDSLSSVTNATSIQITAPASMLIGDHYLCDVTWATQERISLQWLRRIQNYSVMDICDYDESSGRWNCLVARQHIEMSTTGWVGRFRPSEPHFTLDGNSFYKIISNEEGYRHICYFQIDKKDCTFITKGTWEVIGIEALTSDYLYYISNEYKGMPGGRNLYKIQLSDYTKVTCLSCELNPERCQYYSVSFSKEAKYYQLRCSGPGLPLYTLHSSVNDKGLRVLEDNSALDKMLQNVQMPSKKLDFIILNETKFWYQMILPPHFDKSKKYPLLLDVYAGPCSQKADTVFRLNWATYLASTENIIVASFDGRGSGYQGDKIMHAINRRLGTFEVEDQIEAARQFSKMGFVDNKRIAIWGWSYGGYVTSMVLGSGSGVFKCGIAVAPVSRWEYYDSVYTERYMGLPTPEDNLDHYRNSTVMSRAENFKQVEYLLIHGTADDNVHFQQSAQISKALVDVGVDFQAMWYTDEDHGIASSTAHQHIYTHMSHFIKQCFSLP

Biological target: T1, Human DPP IV (Homo sapiens, UniProt P27487)
T1 construct: gene DPP4
Experiment: Gly-Pro-MCA fluorescence hydrolysis inhibition; Ki by Cheng-Prusoff
Details: […] Gly-Pro-MCA, […] sodium phosphate pH […] EDTA, […] Tween […] K, […] min; competitive

Ki: 4.01 ± 0.3 µM
Compound: CC[C@H](C)[C@H](N)C(=O)N1CCC[C@H]1C(=O)N[C@H](C(=O)O)[C@@H](C)CC [diprotin A]
